Test results reported in patent publication US7153869B2, “Substituted amino acids as erythropoietin mimetics” (priority 1998, dated 2006).

Target: T1, EBP-Ig (N-terminal 225 amino acids of the human EPO receptor joined to an Ig heavy chain) (Homo sapiens, UniProt P19235)
T1 construct: Ig heavy chain (fusion partner); made in house; host or cells: NSO cells (secreted into conditioned media)
T1 sequence (P19235 25-250 limits assumed): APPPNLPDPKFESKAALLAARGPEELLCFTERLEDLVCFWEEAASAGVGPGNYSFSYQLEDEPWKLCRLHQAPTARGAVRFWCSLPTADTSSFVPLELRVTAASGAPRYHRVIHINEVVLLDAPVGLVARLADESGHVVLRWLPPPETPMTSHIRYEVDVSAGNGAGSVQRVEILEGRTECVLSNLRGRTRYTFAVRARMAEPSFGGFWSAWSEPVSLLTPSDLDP
Test: Inhibition of [125I]EPO binding to immobilized EBP-Ig (EPO binding protein-Ig), scintillation Flash plate competition assay
Text: The interaction of biotin and streptavidin is frequently employed to capture and effectively immobilize reagents useful in assay protocols and has been employed here as a simple method to capture and immobilize EBP-Ig. EBP-Ig is initially randomly modified with an amine reactive derivative of biotin to produce biotinylated-EBP-Ig. Use of streptavidin coated plates allows the capture of the biotinylated EBP-Ig on the surface of a scintillant impregnated coated well (Flash plates, NEN-DuPont). […] The amount of light produced was quantified to estimate the amount of ligand binding. The specific assay format was suitable for the multi-well plate capacity of a Packard TopCount Microplate Scintillation counter.
Biotinylated EBP-Ig was prepared as follows. EBP-Ig (3 mL, OD280 2.9) was exchanged into 50 mM sodium bicarbonate, pH 8.5 using a Centriprep 10 ultrafiltration device. The final volume of the exchanged protein was 1.2 mL (OD280 2.6, representing about 2 mg total protein). 10 μL of a 4 mg/ml solution of NHS-LC-Biotin (Pierce) was added and the reaction mixture placed on ice in the dark for two hours. Unreacted biotin was removed by exchange of the reaction buffer into PBS in a Centriprep 10 device and the protein reagent aliquoted and stored at −70° C.
All wells were adjusted to a final DMSO concentration of 5%. […] After all additions were made, the plate was covered with an adhesive top seal and placed in the dark at room temperature overnight. The next day all liquid was aspirated from the wells to limit analyte dependent quench of the signal, and the plates were counted on a Packard TOPCOUNT Microplate Scintillation Counter. […] Corrected total binding (CTB) was calculated as: TB−NSB=CTB. […] Table 1 lists the average % inhibition, and if determined the IC50 and IC30 values for compounds of Formula I, where the compound numbers refer to the compounds in the tables accompanying the preparative examples.

| Compound | pIC50 | IC50 (read-out: IC50, μM (Inhibition of EPO binding to EBP-Ig), 0.5 nM [125I]EPO, concentration reducing corrected total binding to 50%) |
| --- | --- | --- |
| O=C(O)CC(C(=O)O)N(C/C=C/c1cccc(Oc2ccccc2)c1)C/C=C/c1cccc(Oc2ccccc2)c1 (stereo not shown) [compound 108] | 4.44 | – |
| COC(=O)C(CCCCN)N(Cc1ccc(OCc2ccccc2)cc1)Cc1ccc(OCc2ccccc2)cc1 (stereo not shown) [compound 110] | 5.00 | – |
| O=C(O)CCC(C(=O)NCCOCCOCCNC(=O)C(CCC(=O)O)N(Cc1ccc(OCc2ccccc2)cc1)Cc1ccc(OCc2ccccc2)cc1)N(Cc1ccc(OCc2ccccc2)cc1)Cc1ccc(OCc2ccccc2)cc1 (stereo not shown) [cpd 246, [N,N-bis(4-Benzyloxybenzyl)GluNHCH2CH2OCH2]2] | 4.12 | – |
| O=C(O)CC(C(=O)O)N(CC=Cc1cccc(Oc2ccccc2)c1)CC=Cc1cccc(Oc2ccccc2)c1 (stereo not shown) [cpd 107, N,N-bis(3-Phenoxycinnamyl)Asp-OH] | – | 42 µM |

pIC50: −log10 of the molar value. Where two headings read alike, the source gives them in different places.
